1 compound from ChEMBL document CHEMBL1152112, “1-Phenyl-[2H]-tetrahydropyridazin-3-one, A-53612, a selective orally active 5-lipoxygenase inhibitor” (Bioorg Med Chem Lett, 1992) can be followed below.

The chains behind the UniProt entries cited, without tags or fusion partners. Where a name states a change or a piece, a line headed by the entry shows the natural chain unless it says otherwise.
UniProt P35354: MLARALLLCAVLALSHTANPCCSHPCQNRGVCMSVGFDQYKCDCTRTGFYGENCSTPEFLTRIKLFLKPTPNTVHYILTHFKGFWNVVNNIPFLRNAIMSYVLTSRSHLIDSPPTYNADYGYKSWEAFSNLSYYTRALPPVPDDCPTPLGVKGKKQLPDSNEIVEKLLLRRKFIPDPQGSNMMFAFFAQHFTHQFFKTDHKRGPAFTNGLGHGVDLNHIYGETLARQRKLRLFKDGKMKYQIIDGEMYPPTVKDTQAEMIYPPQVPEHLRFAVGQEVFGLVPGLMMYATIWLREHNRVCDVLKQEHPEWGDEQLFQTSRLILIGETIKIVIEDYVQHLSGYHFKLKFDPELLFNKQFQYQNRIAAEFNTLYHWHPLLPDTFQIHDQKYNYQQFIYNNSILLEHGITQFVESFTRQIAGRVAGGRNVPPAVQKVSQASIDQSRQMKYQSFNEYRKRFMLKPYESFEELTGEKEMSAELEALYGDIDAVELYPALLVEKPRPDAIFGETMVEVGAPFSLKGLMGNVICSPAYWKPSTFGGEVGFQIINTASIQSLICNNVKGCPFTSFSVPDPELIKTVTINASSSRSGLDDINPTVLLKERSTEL
UniProt P23219: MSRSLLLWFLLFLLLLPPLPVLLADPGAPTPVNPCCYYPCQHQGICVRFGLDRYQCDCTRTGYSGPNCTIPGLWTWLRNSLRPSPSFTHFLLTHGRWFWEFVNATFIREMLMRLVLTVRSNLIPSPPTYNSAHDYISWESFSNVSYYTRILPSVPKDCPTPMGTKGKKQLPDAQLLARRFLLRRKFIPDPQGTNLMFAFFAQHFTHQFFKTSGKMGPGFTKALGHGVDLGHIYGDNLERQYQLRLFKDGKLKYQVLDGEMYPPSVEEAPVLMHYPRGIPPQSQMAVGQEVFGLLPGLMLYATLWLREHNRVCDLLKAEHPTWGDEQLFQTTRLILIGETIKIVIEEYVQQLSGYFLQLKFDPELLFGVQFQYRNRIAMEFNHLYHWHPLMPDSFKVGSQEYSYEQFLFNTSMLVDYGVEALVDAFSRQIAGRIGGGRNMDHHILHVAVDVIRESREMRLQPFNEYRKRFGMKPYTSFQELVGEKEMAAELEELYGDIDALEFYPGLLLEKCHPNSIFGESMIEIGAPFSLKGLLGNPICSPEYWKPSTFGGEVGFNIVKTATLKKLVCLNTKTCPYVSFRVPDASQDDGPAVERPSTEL

Assay [1] addresses T1, Cyclooxygenase (Homo sapiens, UniProt P35354+P23219). Nature of the assay: Inhibitory activity against human whole blood, TXB2 cyclooxygenase was evaluated. The format is protein assay.
In assay [2] the target is T1, Cyclooxygenase. Description: Inhibitory activity against sheep seminal vesicle cyclooxygenase was evaluated. It counts as tissue-based, Ovis aries.

As to `NC1=NN(c2cccc(C(F)(F)F)c2)CC1` [BW-755C], the IC50 (usually the point on the concentration scale where inhibition reaches its midpoint) against Cyclooxygenase [1] is 5.8 µM; at Cyclooxygenase [2], 97 µM.
